Measurements published in ChEMBL document CHEMBL4406823 (Eur J Med Chem, 2019).

Sequences of proteins named here, by UniProt entry; tags and fusion partners are left off.
UniProt Q6B856, whole entry, looked up: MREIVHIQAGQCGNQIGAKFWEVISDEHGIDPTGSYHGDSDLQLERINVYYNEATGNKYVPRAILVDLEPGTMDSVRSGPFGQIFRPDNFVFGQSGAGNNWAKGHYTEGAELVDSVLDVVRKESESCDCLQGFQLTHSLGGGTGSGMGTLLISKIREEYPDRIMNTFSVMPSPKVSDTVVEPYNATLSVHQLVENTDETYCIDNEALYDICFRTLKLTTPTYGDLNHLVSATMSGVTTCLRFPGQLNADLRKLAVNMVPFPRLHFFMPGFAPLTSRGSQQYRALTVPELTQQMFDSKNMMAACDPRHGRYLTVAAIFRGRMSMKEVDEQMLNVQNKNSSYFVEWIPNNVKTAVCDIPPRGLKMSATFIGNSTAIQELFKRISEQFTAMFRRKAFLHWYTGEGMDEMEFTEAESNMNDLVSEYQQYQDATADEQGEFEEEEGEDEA

Target: Tubulin (Bos taurus) (UniProt Q6B856+Q862L2+Q862F3)
Experiment: Potency index, ratio of CA-4 IC50 to compound IC50 for bovine brain tubulin by spectrophotometric method

Ratio IC50, 1.5:
COc1cc(-c2n[nH]cc2-c2ccc(C)cc2)cc(OC)c1OC
CCOc1ccc(-c2c[nH]nc2-c2cc(OC)c(OC)c(OC)c2)cc1
CCOc1ccc(-c2n[nH]cc2-c2cc(OC)c(OC)c(OC)c2)cc1
CCOc1ccc(-c2c[nH]nc2-c2cc(OC)c(OC)c(OC)c2)cc1Cl
COc1ccc(-c2c[nH]nc2-c2cc(OC)c(OC)c(OC)c2)cc1
COc1ccc(-c2n[nH]cc2-c2cc(OC)c(OC)c(OC)c2)cc1
